Experimental data as given in patent publication US11793827B2, “Adenosine derivative and pharmaceutical composition comprising the same” (Brii Biosciences, Inc., priority 2021, dated 2023).

Assay: Plasma stability (human plasma)
Procedure: The pooled frozen plasma was thawed in a water bath at 37° C. prior to experiment. Plasma was centrifuged at 4000 rpm for 5 min and the clots were removed if any. The pH will be adjusted to 7.4±0.1 if required.
Preparation of test compounds and positive control (propantheline bromide): 1 mM intermediate solution was prepared by diluting 10 μL of the stock solution with 90 μL MeOH; 1 mM intermediate of positive control Propantheline was prepared by diluting 10 μL of the stock solution with 90 μL ultrapure water. 100 μM dosing solution was prepared by diluting 20 μL of the intermediate solution (1 mM) with 180 μL MeOH. 98 μL of blank plasma was spiked with 2 μL of dosing solution (100 μM) to achieve 2 μM of the final concentration in duplicate and samples were incubated at 37° C. in a water bath. […] Centrifuged sample plates at 4,000 rpm for 10 min. An aliquot of supernatant (100 μL) was transferred from each well to another plates.

Formation of EFdA at 30 min: No
Compound: C#C[C@]1(COC(=O)OCC23CC4CC(CC(C4)C2)C3)O[C@@H](n2cnc3c(N)nc(F)nc32)C[C@@H]1OC(=O)C(C)C [Compound 20, ((2R,3S,5R)-2-(((((1-adamantyl)methoxy)carbonyl)oxy)methyl)-5-(6-amino-2-fluoro-9H-purin-9-yl)-2-ethynyltetrahydrofuran-3-yl) isobutyrate]
